ChEMBL document CHEMBL5321287, “Discovery, Synthesis, and Evaluation of Novel Dual Inhibitors of a Vascular Endothelial Growth Factor Receptor and Poly(ADP-Ribose) Polymerase for BRCA Wild-Type Breast Cancer Therapy” (J Med Chem, 2023)

Assays:
MDA-MB-231 [1] = assay: Inhibition of colony formation in human MDA-MB-231 cells at 4 uM incubated for 10 days in presence of 1:1 of compound:Pazopanib by crystal violet staining based assay; format: functional, cell-based; settings: time 10.0 day
MDA-MB-231 [2] = assay: Antiproliferation activity against human MDA-MB-231 cells assessed as decrease in Ki67 expression at 4 uM incubated for 48 hrs in presence of 1:1 of compound:Pazopanib by immunofluorescence analysis; format: functional, cell-based
MCF7 [3] = assay: Antiproliferation activity against human MCF7 cells assessed as decrease in Ki67 expression at 4 uM incubated for 48 hrs in presence of 1:1 of compound:Pazopanib by immunofluorescence analysis; format: functional, cell-based
MDA-MB-231 [4] = assay: Induction of apoptosis in human MDA-MB-231 cells assessed as decrease in Bcl-2 level at 4 uM incubated for 2 days in presence of 1:1 of compound:Pazopanib by immunoblot analysis; format: functional, cell-based; settings: time 2.0 day
MDA-MB-231 [5] = assay: Induction of apoptosis in human MDA-MB-231 cells assessed as increase in cleaved caspase-3 level at 4 uM incubated for 2 days in presence of 1:1 of compound:Pazopanib by immunoblot analysis; format: functional, cell-based; settings: time 2.0 day
MCF7 [6] = assay: Induction of apoptosis in human MCF7 cells assessed as decrease in Bcl-2 level at 4 uM incubated for 2 days in presence of 1:1 of compound:Pazopanib by immunoblot analysis; format: functional, cell-based; settings: time 2.0 day
MDA-MB-231 [7] = assay: Antimigratory activity against human MDA-MB-231 cells at 4 uM incubated for 1 hr in presence of 1:1 of compound:Pazopanib by wound healing assay; format: functional, cell-based
MCF7 [8] = assay: Antimigratory activity against human MCF7 cells at 4 uM incubated for 1 hr in presence of 1:1 of compound:Pazopanib by wound healing assay; format: functional, cell-based
MDA-MB-231 [9] = assay: Antimigratory activity in human MDA-MB-231 cells assessed as upregulation of E-cadherin level at 4 uM in presence of 1:1 of compound:Pazopanib by DAPI staining based immunofluorescence analysis; format: functional, cell-based
MCF7 [10] = assay: Antimigratory activity in human MCF7 cells assessed as upregulation of E-cadherin level at 4 uM in presence of 1:1 of compound:Pazopanib by DAPI staining based immunofluorescence analysis; format: functional, cell-based
MCF7 [11] = assay: Antimigratory activity in human MCF7 cells assessed as downregulation of MMP-2 level at 4 uM in presence of 1:1 of compound:Pazopanib by DAPI staining based immunofluorescence analysis; format: functional, cell-based
MDA-MB-231 [12] = assay: Antimigratory activity in human MDA-MB-231 cells assessed as upregulation of E-cadherin level at 4 uM incubated for 2 days in presence of 1:1 of compound:Pazopanib by immunoblot analysis; format: functional, cell-based; settings: time 2.0 day
MCF7 [13] = assay: Antimigratory activity in human MCF7 cells assessed as upregulation of E-cadherin level at 4 uM incubated for 2 days in presence of 1:1 of compound:Pazopanib by immunoblot analysis; format: functional, cell-based; settings: time 2.0 day
MCF7 [14] = assay: Antimigratory activity in human MCF7 cells assessed as downregulation of MMP-2 level at 4 uM incubated for 2 days in presence of 1:1 of compound:Pazopanib by immunoblot analysis; format: functional, cell-based; settings: time 2.0 day
MDA-MB-231 [15] = assay: Induction of hypoxia in human MDA-MB-231 cells assessed as upregulation of HIF-1alpha level at 4 uM incubated for 2 days in presence 1:1 of Pazopanib by Western blot analysis; format: functional, cell-based; settings: time 2.0 day
MDA-MB-231 [16] = assay: Induction of DNA damage in human MDA-MB-231 cells assessed as increase in comet tail length at 4 uM in presence 1:1 of Pazopanib by alkaline comet assay; format: functional, cell-based
MDA-MB-231 [17] = assay: Induction of DNA damage in human MDA-MB-231 cells assessed as increase in gamma-H2AX level at 4 uM incubated for 48 hrs in presence of 1:1 of compound:Pazopanib by DAPI staining based immunofluorescence analysis; format: functional, cell-based
MDA-MB-231 [18] = assay: Induction of HR DNA repair in human MDA-MB-231 cells assessed as decrease in RAD51 level at 4 uM incubated for 48 hrs in presence of 1:1 of compound:Pazopanib by DAPI staining based immunofluorescence analysis; format: functional, cell-based
MDA-MB-231 [19] = assay: Antiinvasive activity against human MDA-MB-231 cells at 4 uM incubated for 12 hrs in presence of 1:1 of compound:Pazopanib by transwell assay; format: functional, cell-based
MCF7 [20] = assay: Antiinvasive activity against human MCF7 cells at 4 uM incubated for 12 hrs in presence of 1:1 of compound:Pazopanib by transwell assay; format: functional, cell-based
MDA-MB-231 [21] = assay: Antiproliferation activity against human MDA-MB-231 cells xenografted in BALB/c nude mouse assessed as decrease in Ki67 expression at 50 mg/kg, po for 14 days in presence of 1:1 of compound:Pazopanib by H and E staining based IHC analysis; format: functional, organism-based; settings: time 14.0 day
MDA-MB-231 [22] = assay: Antimigratory activity in human MDA-MB-231 cells xenografted in BALB/c nude mouse assessed as downregulation of MMP2 level at 50 mg/kg, po for 14 days in presence of 1:1 of compound:Pazopanib by H and E staining based IHC analysis; format: functional, organism-based; settings: time 14.0 day
MDA-MB-231 [23] = assay: Antimigratory activity in human MDA-MB-231 cells xenografted in BALB/c nude mouse assessed as upregulation of E-cadherin level at 50 mg/kg, po for 14 days in presence of 1:1 of compound:Pazopanib by H and E staining based IHC analysis; format: functional, organism-based; settings: time 14.0 day
MDA-MB-231 [24] = assay: Downregulation of PAR expression in human MDA-MB-231 cells xenografted in BALB/c nude mouse at 25 to 50 mg/kg, po for 14 days in presence of 1:1 of compound:Pazopanib by Western blot analysis; format: functional, organism-based; settings: dose 25-50 mg/kg, time 14.0 day
MDA-MB-231 [25] = assay: Induction of DNA damage in human MDA-MB-231 cells xenografted in BALB/c nude mouse assessed as increase in gamma-H2AX level at 50 mg/kg, po for 14 days in presence of 1:1 of compound:Pazopanib by Western blot analysis; format: functional, organism-based; settings: time 14.0 day
MDA-MB-231 [26] = assay: Induction of HR DNA repair in human MDA-MB-231 cells xenografted in BALB/c nude mouse assessed as decrease in BRCA1 level at 50 mg/kg, po for 14 days in presence of 1:1 of compound:Pazopanib by Western blot analysis; format: functional, organism-based; settings: time 14.0 day
MDA-MB-231 [27] = assay: Induction of HR DNA repair in human MDA-MB-231 cells xenografted in BALB/c nude mouse assessed as decrease in FOXM1 level at 50 mg/kg, po for 14 days in presence of 1:1 of compound:Pazopanib by H and E staining based IHC analysis; format: functional, organism-based; settings: time 14.0 day
MDA-MB-231 [28] = assay: Antimetastatic activity against human MDA-MB-231 cells xenografted in lungs of BALB/c nude mouse assessed as decrease in lung metastatic nodules at 50 mg/kg administered once a day measured after 14 days in presence of 1:1 of compound:Pazopanib; format: functional, organism-based; settings: time 14.0 day
MDA-MB-231 [29] = assay: Antimetastatic activity against human MDA-MB-231 cells xenografted in lungs of BALB/c nude mouse assessed as decrease in lung metastatic nodules at 50 mg/kg administered once a day measured after 14 days in presence of 1:1 of compound:Pazopanib by H and E staining based analysis; format: functional, organism-based; settings: time 14.0 day
MDA-MB-231 [30] = assay: Antimigratory activity in human MDA-MB-231 cells xenografted in lungs of BALB/c nude mouse assessed as increase in E-cadherin level in lungs at 50 mg/kg administered once a day measured after 14 days in presence of 1:1 of compound:Pazopanib by IHC analysis; format: functional, organism-based; settings: time 14.0 day

O=C(c1cc(Cc2n[nH]c(=O)c3ccccc23)ccc1F)N1CCN(C(=O)C2CC2)CC1 [OLAPARIB]
active: inhibition (MDA-MB-231 [1]) | Activity (MDA-MB-231 [2]) | Activity (MCF7 [3]) | Activity (MDA-MB-231 [4]) | Activity (MDA-MB-231 [5]) | Activity (MCF7 [6]) | Activity (MDA-MB-231 [7]) | Activity (MCF7 [8]) | Activity (MDA-MB-231 [9]) | Activity (MCF7 [10]) | Activity (MCF7 [11]) | Activity (MDA-MB-231 [12]) | Activity (MCF7 [13]) | Activity (MCF7 [14]) | Activity (MDA-MB-231 [15]) | Activity (MDA-MB-231 [16]) | Activity (MDA-MB-231 [17]) | Activity (MDA-MB-231 [18]) | Activity (MDA-MB-231 [19]) | Activity (MCF7 [20]) | Activity (MDA-MB-231 [21]) | Activity (MDA-MB-231 [22]) | Activity (MDA-MB-231 [23]) | Activity (MDA-MB-231 [24]) | Activity (MDA-MB-231 [25]) | Activity (MDA-MB-231 [26]) | Activity (MDA-MB-231 [27]) | Activity (MDA-MB-231 [28]) | Activity (MDA-MB-231 [29]) | Activity (MDA-MB-231 [30])

Active and inactive are the calls of the source.
